uPA surface inh – cell surface uPA generation inhibition; cell surface uPA generation assay, qHTS; Potency, µM (highest dose often 38.3 µM), for the others: top-dose activity change, negative = inhibition, hits mostly inhibitors; hit rate 0.31% among 330,000; AID 540303; active = well fitted inhibition curve with a large enough effect; inconclusive = small, poorly fitted or top-dose-only effect; inactive = no such curve, though single readings can be large or run the other way; tested in mouse RAW 264.7 cells; also: potency is read from the fitted curve at half-maximal effect; % is scaled to controls: 0 for no effect and ±100 for the full control effect; nearly all actives have a fitted effect of over 55% in size
DT40 TDP1 no CPT – qHTS for Inhibitors of human tyrosyl-DNA phosphodiesterase 1 (TDP1): qHTS in cells in absence of CPT; DT40 Tdp1-/- hTDP1 cells, no CPT, ATP luminescence, 48 h; Potency, µM (top dose mostly 46.2 µM), for the others: at the top dose activity change, negative = growth inhibition, hits mostly inhibitors; hit rate 15% among 420,000; AID 686978, 2013; also: potency is read from the fitted curve at half-maximal effect; % is scaled to controls: 0 for no effect and ±100 for the full control effect; nearly all actives have a fitted effect of over 55% in size
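Camptothecin absent (DMSO only). Human TDP1-complemented DT40 knockout cells, 400 cells/well, 37 °C for minimum 48 hr; ATP measured via CellTiter-Glo, 30 min dark incubation, luminescence.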
miR-21 reporter – raises the signal of a miR-21 reporter; 340,000 tested, under 10 active; HeLa miR-21 FLuc reporter, luciferase, 48 h; Potency, µM (series often up to 38.3 µM), for inactives: at the highest dose reporter change, positive = more light; active = well fitted rising curve with a large enough effect; inconclusive = small, poorly fitted or top-dose-only effect; inactive = no such curve, though single readings can be large or run the other way;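 further: % of control where 0% means no effect; miR-21 action dims this reporter so a rising signal means less miR-21 action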
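Compounds were titrated across several concentrations (up to approximately 40 uM) and incubated 48 hours with HeLa miR-21-FLuc reporter cells (miR-21 target sequence downstream of FLuc, endogenous miR-21). Readout was firefly luciferase luminescence after lytic detection reagent.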
TDP1 block – inhibitors of human tyrosyl-DNA phosphodiesterase TDP1; Q9NUW8; recombinant TDP1, AlphaScreen DNA substrate cleavage; Potency, µM (series often up to 130 µM), inactives show at the top dose activity change, negative = inhibition, usual class: inhibitors; hit rate 0.28% among 350,000; AID 485290; also: potency is read from the fitted curve at half-maximal effect; % is scaled to controls: 0 for no effect and ±100 for the full control effect; nearly all actives have a fitted effect of over 40% in size
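E. coli-derived human Tdp1, 1 nM final. Cpd preinc 15 min RT; substrate 15 nM final, 5 min RT; AS bead mix 10 ug/ml final, 10 min RT. Signal loss = tyrosine-FITC cleavage. No-enzyme wells = max signal.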
DT40 TDP1 CPT – DT40-hTDP1 cell growth loss with CPT; hit rate 12% among 420,000; Potency, µM (series often up to 46.2 µM), for inactives: at the top dose activity change, negative = growth inhibition, most hits filed as inhibitors; chicken DT40 Tdp1-/-;hTDP1 cells + 20 nM CPT, ATP luminescence, 48 h; also: potency is read from the fitted curve at half-maximal effect; % is scaled to controls: 0 for no effect and ±100 for the full control effect; nearly all actives have a fitted effect of over 55% in size
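Chicken DT40 Tdp1-/- cells complemented with human TDP1, 400 cells/well, exposed to compounds plus 20 nM camptothecin for at least 48 h at 37 C; viability read as ATP content by CellTiter-Glo luminescence.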
Active calls of the source: *; ? = inconclusive; . = no result given; ! = repeats disagree; [ ] = remark or other dose. Shown are actives, neighbours in structure and some others; about 16% of the full set was active somewhere. Unless noted, calls follow the shape of the dose curve; as a rule, active = well fitted curve in the direction sought with a large enough effect; inconclusive = small, poorly fitted or top-dose-only effect, or another doubt; inactive = no such curve, though single readings can be large; an effect the other way counts as inactive or inconclusive.

SMILES	uPA surface inh	DT40 TDP1 no CPT	miR-21 reporter	TDP1 block	DT40 TDP1 CPT
CCn1cc(C(=O)OCC(=O)OC2CC(C)CCC2C(C)C)c(=O)c2ccc(C)nc21 (stereo not drawn)	-1%	?	3%	3%	18µM*
Cc1c(Br)c([N+](=O)[O-])nn1CC(=O)Nc1ccc2nc3n(c(=O)c2c1)CCCC3	6%	1%	0%	3%	3%
O=C(CSC1=Nc2ccccc2C2=NC(Cc3ccccc3)C(=O)N12)Nc1ccccc1 (stereo not drawn)	.	?	6%	-1%	?
COc1ccc(NC(=O)CSC2=Nc3ccccc3C3=NC(Cc4ccccc4)C(=O)N23)cc1Cl (stereo not drawn)	.	?	-7%	9%	21µM*
Cc1ccc(NC(=O)CSC2=Nc3ccccc3C3=NC(Cc4ccccc4)C(=O)N23)cc1C (stereo not drawn)	.	13µM*	6%	6%	9.2µM*
COc1cccc(NC(=O)CSC2=Nc3ccccc3C3=NC(CC(=O)NCc4ccccc4OC)C(=O)N23)c1 (stereo not drawn)	.	?	15%	1%	?
COC(=O)C1=C(C)N(Cc2cccnc2)C(=O)/C1=C\c1cccs1	.	.	-10%	9%	.
OC(COc1ccc2cc(Br)ccc2c1)CN1CCOCC1 (stereo not drawn)	-5%	?	-49%	2%[56.1 µM]	18µM*
OC(COc1ccccc1)CN1CCOCC1 (stereo not drawn)	0%	-3%	-16%	5%	0%
O=C(c1ccc(Cl)cc1)c1ccc(OCC(O)CN2CCOCC2)cc1 (stereo not drawn)	-3%	16µM*	-7%	4%	23µM*
Cc1onc(-c2ccccc2)c1C(=O)Nc1nnc(CC(C)C)s1	3%	-13%	1%	2%	-3%
Cc1ccc2c(c1)sc(-c1ccc(N(C)C)cc1)[n+]2C	?	0.018µM*	14%	.	0.037µM*
CCC(C)c1ccc2oc(-c3ccc(NC(=O)Cn4cnc5c(=O)n(C)c(=O)n(C)c54)cc3)nc2c1 (stereo not drawn)	4%	15µM*	-58%	4%	21µM*
Cc1ccc2oc(-c3cccc(NC(=O)Cn4cnc5c(=O)n(C)c(=O)n(C)c54)c3)nc2c1	.	.	-65%	3%	.
C=CC[C@@H](Cc1ccc(F)cc1)C(=O)OC[C@@H]1CCCN1C(=O)[C@@H](CC=C)CC(=O)N(CCO)Cc1ccccc1	-17%	15µM*	.	0%	?
C=CC[C@@H](Cc1ccc(F)cc1)C(=O)OC[C@@H]1CCCN1C(=O)[C@H](CC=C)CC(=O)N[C@H](CO)Cc1ccccc1	-20%	18µM*	.	-2%	?
CCOC(=O)c1c(C)[nH]c(C)c1C(=O)COC(=O)CNC(=O)c1ccc(OCC)cc1	-4%	-18%	-6%	6%	-10%
Cc1ccc(CCNC(=O)C2CCN(Cc3nc(-c4ccccc4C)oc3C)CC2)cc1	.	18µM*	9%	6%	13µM*
COc1ccc(CCNC(=O)C2CCCN(Cc3nc(-c4ccccc4C)oc3C)C2)cc1OC (stereo not drawn)	-2%	23µM*	10%	-3%	23µM*
CCc1ccc(-c2nc(CN3CCCC(C(=O)NCCc4ccc(OC)c(OC)c4)C3)c(C)o2)cc1 (stereo not drawn)	-4%	13µM*	8%	9%	23µM*
Cc1ccccc1-c1nc(CN2CCCC(C(=O)NCc3cccnc3)C2)c(C)o1 (stereo not drawn)	2%	16µM*	4%	5%	23µM*
Cc1ccc(CNC(=O)C2CCN(Cc3nc(-c4ccccc4C)oc3C)CC2)cc1	.	?	5%	5%	?
COc1ccc(-c2nc(CN3CCC(C(=O)NCc4ccc(C)cc4)CC3)c(C)o2)cc1OC	.	?	12%	7%	?
Cc1cc(C)n2nc(NCc3ccccc3)nc2n1	1%	-1%	-23%	-1%	0%
Cc1cc(OC2CCCCC2)nc(NCc2ccccc2)n1	3%	5%	11%	1%	4%

Complete entries, looked up by structure.
Profile of COc1cccc(NC(=O)CSC2=Nc3ccccc3C3=NC(CC(=O)NCc4ccccc4OC)C(=O)N23)c1 (stereo not drawn) = uPA surface inh = .; DT40 TDP1 no CPT = ?; miR-21 reporter = 15%; TDP1 block = 1%; DT40 TDP1 CPT = ?
Profile of Cc1c(Br)c([N+](=O)[O-])nn1CC(=O)Nc1ccc2nc3n(c(=O)c2c1)CCCC3 = uPA surface inh = 6%; DT40 TDP1 no CPT = 1%; miR-21 reporter = 0%; TDP1 block = 3%; DT40 TDP1 CPT = 3%

The listing picks up, repeating the two entries before the break.
SMILES	uPA surface inh	DT40 TDP1 no CPT	miR-21 reporter	TDP1 block	DT40 TDP1 CPT
Cc1cc(C)n2nc(NCc3ccccc3)nc2n1	1%	-1%	-23%	-1%	0%
Cc1cc(OC2CCCCC2)nc(NCc2ccccc2)n1	3%	5%	11%	1%	4%
CCOc1cc(C)nc(NCc2ccccc2)n1	-9%	21µM*	8%	-1%	23µM*
CCCCOc1cc(C)nc(NCc2ccccc2)n1	-2%	16µM*	9%	-3%	4.1µM*
Cc1cc(Oc2ccccc2)nc(SCC(N)=O)n1	1%	-13%	-6%	-3%	-3%
CC(=O)c1ccc(Oc2cc(C)nc(NCc3ccccc3)n2)cc1	5%	21µM*	4%	7%	21µM*
CC(=O)OC1CCC2(C)C3=CCC4(C)C(C(C)=O)=CCC4C3CCC2C1 (stereo not drawn)	6%	?	.	.	?
Cc1nc2c(O)c3c(c(O)c2nc1C)C1C=CC3CC1	-15%	0.52µM*	.	.	0.46µM*
Cc1nc2c(C)c(C)c(C)c(C)c2nc1C	6%	-5%	1%	1%	7%
c1ccc2nc(-c3ccc(-n4ccnc4)cc3)ccc2c1	4%	-20%	-64%	.	?
Cc1nn(C)c(C(=O)NNC(=O)NC2CCCCC2)c1Cl	11%	-6%	4%	4%	2%
Cc1csc2sc(-c3ccnc(SCC(=O)NCc4ccccc4)n3)c(C)c12	-2%	0.73µM*	?	3%	0.73µM*
CCOc1ccc(S(=O)(=O)c2ccc(C)cc2)c2c1no[n+]2[O-]	.	18µM*	.	.	15µM*
CC(=O)c1c(C)n(-c2cccc(Cl)c2)c2ccc(O)cc12	-1%	0.52µM*	2%	.	?
CC(=O)c1c(C)n(-c2ccccc2)c2ccc(O)cc12	-3%	?	2%	2%	-29%
CC(=O)c1c(C)n(-c2cccc(Cl)c2)c2ccc(OC(=O)c3ccccc3)cc12	.	29µM*	-3%	-2%[12.3 µM]	?
COC(=O)c1c(C)n(-c2ccc(C)cc2)c2ccc(O)cc12	.	18µM*	16%	-2%	35µM*
COC(=O)c1c(C)n(-c2ccccc2)c2ccc(O)cc12	.	?	11%	6%	?
CC(=O)c1c(C)n(-c2ccc(Cl)cc2)c2ccc(O)cc12	10%	-20%	10%	.	?
COc1ccc(-c2c(-c3ccc4c(c3)OCO4)noc2-c2ccsc2)cn1	.	14µM*	.	.	13µM*
COc1ccc(C2=CC(=O)C[C@H](c3ccc4c(c3)OCO4)C2)cn1	6%	-15%	.	5%	-26%
COc1ccc(-c2c(-c3ccc4c(c3)OCO4)noc2C)cn1	?	11µM*!	-28%	.	?
CC[C@H]1C(O)C[C@H]2CCN3C(=O)CCC[C@H]1[C@H]23 (stereo partly drawn)	-5%	1%	.	0%[56.1 µM]	-4%
O=C(O)COn1c(-c2ccccc2)nc2ccc(Cl)cc21	-6%	-10%	-14%	4%	27%

Screens deposited in PubChem BioAssay by National Center for Advancing Translational Sciences (NCATS).
